From ChEMBL document CHEMBL4043127, “ATP-competitive, marine derived natural products that target the DEAD box helicase, eIF4A” (Bioorg Med Chem Lett, 2017)

Organism: Homo sapiens
Assay: Selectivity ratio of IC50 for DDX39A (unknown origin) expressed in Escherichia coli BL21(Rosetta 2) to IC50 for eIF4A1 (unknown origin) expressed in Escherichia coli BL21(DE3)

## CC(C)=C[C@@H]1C[C@H](C)c2c(O)cc(C)c3c2C1=C(C)C(=O)C3=O [ELISABATIN A]
  Ratio IC50: 20
